Measured values published in paper PMC10044120, “Potent and selective covalent inhibition of the papain-like protease from SARS-CoV-2” (Nature Communications, 2023).

How the values were obtained:
[1] = biological target: full-length SARS-CoV-2 hemagglutinin (HA)-Nsp3 (Severe acute respiratory syndrome coronavirus 2, UniProt P0DTD1); experiment: biochemical
SARS-CoV-2 PLpro = SARS-CoV-2 PLpro (Severe acute respiratory syndrome coronavirus 2, UniProt P0DTD1); experiment: biochemical

`COC(=O)/C=C/C(=O)NNC(=O)CCc1ccccc1C(=O)N[C@H](C)c1cccc2ccccc12` [Compound 7, methyl(R,E)-4-(2-(3-(2-((1-(naphthalen-1 yl)ethyl)carbamoyl)phenyl)propanoyl)hydrazineyl)-4-oxobut-2-enoate] was tested, and the IC50 [1] was 49 nM and the IC50 (SARS-CoV-2 PLpro) was 37 nM.
